GRP78 ERSR act = ER stress response induction in glioma | U87-MG GRP78 promoter luciferase reporter, 16 h | Potency, µM, inactives show top-dose activation, actives largely listed as activators | 0.02% of 420,000 active | AID 602332; also: potency is read from the fitted curve at half-maximal effect; series mostly up to about 76 µM; % of control where 0% means no effect; nearly all actives have a fitted effect of over 35% in size
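Stably transfected U87-MG human glioma cells carrying a GRP78-based luminescent sensor were seeded at 1000 cells/well, pin-dosed with compounds and incubated 16 h. Luciferase reagent was then added, and end-point luminescence was read after 10 min at room temperature.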
miR-21 FLuc = raises the signal of a miR-21 reporter; 340,000 tested, under 10 active; HeLa miR-21 FLuc reporter, luciferase, 48 h; Potency, µM (series often up to 38.3 µM), for inactives: at the highest dose reporter change, positive = more light; active = well fitted rising curve with a large enough effect; inconclusive = small, poorly fitted or top-dose-only effect; inactive = no such curve, though single readings can be large or run the other way;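 further: % of control where 0% means no effect; miR-21 action dims this reporter so a rising signal means less miR-21 action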
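Luminescence from a firefly luciferase reporter carrying a miR-21 binding site downstream, stably expressed under a CMV promoter in HeLa cells that make miR-21 endogenously, reports miRNA modulation after 48 h compound exposure up to approximately 40uM final.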
Nrf2 activator = Nrf2 pathway activation; AREc32 ARE-luciferase reporter (MCF7-derived line), luminescence, 24 h; Potency, µM (top dose mostly 46.1 µM), without a hit: at the top dose activation, hits mostly activators; 0.31% of 410,000 active; AID 624171; also: potency is read from the fitted curve at half-maximal effect; % of control where 0% means no effect; nearly all actives have a fitted effect of over 65% in size
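Nrf2 activation is followed as ARE-luciferase induction in the AREc32 line after one day of compound treatment; luminescence is read with Steady-Glo.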
Mito fusion yeast = blocks mitochondrial division or promotes mitochondrial fusion. S. cerevisiae fusion-defective mutant growth rescue, CellTiterGlo 48 h. Potency, µM (series often up to 46.1 µM), for inactives: at the top dose growth rescue (activation), hits mostly activators. 0.23% of 320,000 active. AID 485298; also: potency is read from the fitted curve at half-maximal effect; % of control where 0% means no effect; nearly all actives have a fitted effect of over 45% in size
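Read-out: ATP-based luminescence (CellTiterGlo, 10 min ambient) reporting growth of fusion-defective ts yeast after 48 hours at 37C on glycerol/ethanol YPEG medium in the presence of compound.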
Nrf2 inh = blocks Nrf2 signaling. 2.1% of 360,000 active. A549 ARE-Fluc reporter, luciferase luminescence, 18-24 h. Potency, µM (highest dose often 46 µM), for the others: at the highest dose activity change, negative = inhibition, actives largely listed as inhibitors; also: potency is read from the fitted curve at half-maximal effect; % is scaled to controls: 0 for no effect and ±100 for the full control effect; nearly all actives have a fitted effect of over 60% in size
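Nrf2 activity is the BugLite luminescence, read 15 min after reagent at room temperature, following CellTiter-Fluor cytotoxicity readout (30 min, 37C). Compound titrations were applied for 18-24 h to 5000 A549 ARE_Fluc cells/well in 5% FBS OPTI-MEM.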
A549 tox = A549 cytotoxicity, counter-screen for Nrf2 inhibitors; A549 ARE-Fluc cells, CellTiter-Fluor viability, 18-24 h; Potency, µM (top dose mostly 46 µM), without a hit: top-dose activity change, negative = cytotoxicity, most hits filed as inhibitors; 0.16% of 390,000 active; also: potency is read from the fitted curve at half-maximal effect; % is scaled to controls: 0 for no effect and ±100 for the full control effect
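A549 ARE_Fluc cells in 5% FBS OPTI-MEM were exposed to compounds in concentration-response for 18-24 h at 37 deg C. Viability was read by CellTiter-Fluor fluorescence (Ex 405/Em 525) after 30 min, before the luciferase read.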
An asterisk follows results filed as active; ? = inconclusive; nt = not tested or not shown; ! = repeats disagree. A selection: hits, their analogues and other compounds. The true share with any hit is near 2.3%. Unless noted, calls follow the shape of the dose curve; as a rule, active = well fitted curve in the direction sought with a large enough effect; inconclusive = small, poorly fitted or top-dose-only effect, or another doubt; inactive = no such curve, though single readings can be large; an effect the other way counts as inactive or inconclusive.

cpd | SMILES | GRP78 ERSR act | miR-21 FLuc | Nrf2 activator
1 | O=C(CSc1cn(CCNC(=O)c2ccccc2F)c2ccccc12)Nc1ccccc1F | 0% | 30% | 0%
2 | COc1ccc(Cl)cc1NC(=O)CSc1cn(CC(=O)N2CCCCCC2)c2ccccc12 | -2% | 30% | 1%
3 | COc1ccc(CCNC(=O)C2CC(=O)N(CCc3ccc(C)cc3)C2)cc1OC (stereo not drawn) | -5% | 1% | -1%
4 | O=C(CSc1cn(CCNC(=O)c2ccc3ccccc3c2)c2ccccc12)NCc1ccco1 | 5% | 13% | 6%
5 | Cc1ccccc1NC(=O)CSc1cn(CC(=O)N2CCCC2)c2ccccc12 | -2% | 1% | -1%
6 | O=C(CSc1cn(CC(=O)N2CCCCCC2)c2ccccc12)Nc1ccccc1F | 2% | 25% | 1%
7 | Cc1cccc(NC(=O)CS(=O)(=O)c2cn(CC(=O)N3CCOCC3)c3ccccc23)c1 | -3% | 1% | -1%
8 | O=C(Nc1ccccc1OC(=O)c1ccc(Cl)cc1)c1ccc(Cl)cc1 | 9% | -59% | ?

cpd | Mito fusion yeast | Nrf2 inh | A549 tox
1 | nt | -27% | 2%
2 | nt | 26µM* | -7%
3 | 4% | 3% | 7%
4 | 1% | 23µM* | -27%
5 | nt | nt | 2%
6 | nt | 21µM* | -11%
7 | 0% | ? | 1%
8 | 6% | ? | 2%

Profiles from above. Order of screens: GRP78 ERSR act, miR-21 FLuc, Nrf2 activator, Mito fusion yeast, Nrf2 inh, A549 tox
Record of O=C(Nc1ccccc1OC(=O)c1ccc(Cl)cc1)c1ccc(Cl)cc1 → 9%, -59%, ?, 6%, ?, 2%
Record of COc1ccc(CCNC(=O)C2CC(=O)N(CCc3ccc(C)cc3)C2)cc1OC (stereo not drawn) → -5%, 1%, -1%, 4%, 3%, 7%
Record of Cc1ccccc1NC(=O)CSc1cn(CC(=O)N2CCCC2)c2ccccc12 → -2%, 1%, -1%, nt, nt, 2%

Carrying on:
cpd | SMILES | GRP78 ERSR act | miR-21 FLuc | Nrf2 activator
9 | O=C(Nc1ccccc1O)c1ccc(Cl)cc1 | ? | -56% | 13µM*
10 | Cc1ccc(Cn2ccc(NC(=O)c3cc(-c4cccc(Cl)c4)on3)n2)cc1 | -5% | -3% | 0%
11 | Cc1ccc(Cn2ccc(NC(=O)c3cc(-c4ccc(Cl)cc4)on3)n2)cc1 | -3% | -5% | -1%
12 | COc1ccc(CCNC(=O)Cn2c(=O)c3cccn3c3ccc(F)cc32)cc1OC | -5% | -1% | -1%
13 | CCN(CC)CCNCC1C(=O)O[C@@H]2C[C@@]3(C)CCC[C@H](C)C3=C[C@H]12 (stereo partly drawn) | -9% | 16% | 11µM*
14 | CCOc1cccc2cc(C(=O)NCc3ccc(Cl)cc3)c(=N)oc12 | 0% | 2% | -1%
15 | CC(C)(C)c1cc(O)c(C(C)(C)C)cc1O | 40µM*! | nt | nt
16 | Cc1nn(Cc2ccc(Cl)cc2)c(C)c1NC(=O)CCCn1nc(C)c([N+](=O)[O-])c1C | 4% | 4% | 4%

cpd | Mito fusion yeast | Nrf2 inh | A549 tox
9 | 0% | ? | 0%
10 | -3% | 21µM* | ?
11 | -3% | nt | 0%
12 | nt | 9% | 10%
13 | -1% | -11% | 1%
14 | -5% | ? | -3%
15 | nt | nt | nt
16 | 0% | 21µM* | ?

Next part:
cpd | SMILES | GRP78 ERSR act | miR-21 FLuc | Nrf2 activator
17 | CCC1CCCCN1C(=O)CSc1nc(-c2ccc(OC)c(OC)c2)cc(C(F)(F)F)n1 (stereo not drawn) | -3% | 18% | 0%
18 | CCC1CCCCN1C(=O)CSc1nc(-c2ccc(OC)cc2)cc(C(F)(F)F)n1 (stereo not drawn) | -1% | ? | 0%
19 | Cc1ccc(C(=O)O/N=C/c2c(N3CCOCC3)n(C)c3ccccc23)cc1 | 0% | 22% | -1%
20 | Cn1c(N2CCOCC2)c(/C=N/OC(=O)c2ccc(F)cc2)c2ccccc21 | -3% | ? | 0%
21 | CC(=O)O/N=C/c1c(N2CCOCC2)n(C)c2ccccc12 | -3% | 23% | 0%
22 | Cc1ccc(NC(=O)CNCc2cccs2)c(Br)c1 | 7% | -67% | 5%
23 | Cc1cccc(N2CCN(S(=O)(=O)c3ccc(-c4ccc(=O)[nH]n4)o3)CC2)c1C | -6% | -3% | -1%
24 | O=c1[nH]c2ccccc2nc1C(F)(F)F | 7% | 17% | -2%

cpd | Mito fusion yeast | Nrf2 inh | A549 tox
17 | nt | ? | ?
18 | nt | 21µM* | -6%
19 | -6% | ? | -1%
20 | -7% | 0.65µM* | -5%
21 | -6% | 6.5µM* | nt
22 | 0% | 23% | 8%
23 | -9% | 13µM* | ?
24 | 1% | ? | 0%

(more compounds)
cpd | SMILES | GRP78 ERSR act | miR-21 FLuc | Nrf2 activator
25 | COc1cc2c(C(=O)N3CCOCC3)c(CSc3ccccc3)n(C)c2cc1Br | -4% | 15% | 2%
26 | Cc1ccc(OCCNC(=O)CCNS(=O)(=O)c2ccc(C)cc2)cc1 | -4% | nt | 0%
27 | O=C(c1ccc2c(c1)N(Cc1ccc(F)cc1)CCS2)N1CCN(c2ccccc2)CC1 | 0% | ? | 1%
28 | Cc1ccc(CN2CCSc3ccc(C(=O)N4CCN(c5ccccc5)CC4)cc32)cc1 | -2% | 1% | 0%
29 | CCOC(=O)N1CCC(NC(=O)c2ccc3c(c2)N(Cc2ccc(C)cc2)CCS3)CC1 | 0% | -6% | 3%
30 | CCOC(=O)N1CCC(NC(=O)c2ccc3c(c2)N(Cc2ccc(F)cc2)CCS3)CC1 | -5% | -5% | -1%
31 | CCOC(=O)N1CCC(NC(=O)c2ccc3c(c2)N=C(C)c2ccccc2S3)CC1 | -4% | 18% | 2%
32 | CCOC(=O)N1CCN(C(=O)c2ccc3c(c2)N(C)C(=O)/C(=C\c2ccc(OCC)c(OC)c2)S3)CC1 | -3% | 26% | 5%

cpd | Mito fusion yeast | Nrf2 inh | A549 tox
25 | 0% | 26µM* | ?
26 | -8% | 4% | 1%
27 | nt | 21µM* | ?
28 | nt | -1% | 9%
29 | -3% | -26% | -1%
30 | 10% | 26µM* | -13%
31 | 7% | 21µM* | -5%
32 | 17% | -82% | 0%

Following part
cpd | SMILES | GRP78 ERSR act | miR-21 FLuc | Nrf2 activator
33 | CCOC(=O)N1CCC(NC(=O)c2ccc3c(c2)N(C)C(=O)/C(=C/c2cccc(OC)c2)S3)CC1 | 1% | 0% | 0%
34 | COc1ccc(NC(=O)COC(=O)c2ccc(S(=O)(=O)N(C)c3ccccc3OC)cc2)c(OC)c1 | nt | 25% | nt
35 | CCCCOc1ccc(CN(C)c2ncnc(N)n2)cc1 | 2% | -8% | 4%
36 | CCOc1cc(/C=N/Nc2nc3ccccc3[nH]2)cc(Br)c1OCC(=O)N(C)C | -6% | -2% | 0%
37 | S=C(N/N=C/c1ccc2ncccc2c1)Nc1ccccc1 | -5% | -35% | 0%
38 | CCOc1ccccc1OCC(=O)Nc1nc2ccccc2[nH]1 | 1% | -14% | 3%
39 | C(=N\Nc1nc2ccccc2[nH]1)/c1ccc2ncccc2c1 | -1% | 5% | 7%
40 | Fc1ccccc1-c1ccc(/C=N/Nc2nc3ccccc3[nH]2)o1 | 16% | -19% | 11µM*
41 | CCOc1ncccc1C(=O)OCC(=O)N(CC(C)C)c1c(N)n(Cc2ccccc2)c(=O)[nH]c1=O | -5% | nt | 1%
42 | O=C(NNS(=O)(=O)c1ccc([N+](=O)[O-])cc1)c1ccc2ccccc2c1O | -1% | -8% | 3%
43 | COc1cc(OC)c(OC)cc1/C=N/Nc1nc2ccccc2[nH]1 | -7% | -5% | -1%

cpd | Mito fusion yeast | Nrf2 inh | A549 tox
33 | 0% | 16µM* | 8%
34 | 7% | nt | nt
35 | 3% | -12% | -7%
36 | 3% | 18µM* | -11%
37 | 13% | 13µM* | 3%
38 | 3% | 0% | 3%
39 | -2% | 21µM* | -7%
40 | -3% | ? | 4%
41 | -5% | -3% | 0%
42 | 4% | 13% | 5%
43 | -2% | 1% | -4%
